# AlphaSeq binding of Ab-91 heavy chain variants to a spike HR2 peptide

Source: Engelhart et al. 2022 (doi:10.1038/s41597-022-01779-4), MIT Lincoln Laboratory and A-Alpha Bio; data file from the FLAb repository.

Binding partner: SARS-CoV-2 spike HR2 peptide, sequence PDVDLGDISGINAS.

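The starting antibody came from a phage panning campaign against this peptide. The library (AAYL51) carries one to three amino acid substitutions per variant, with no insertions or deletions. AlphaSeq pools MATa yeast showing the antibodies with MATalpha yeast showing the peptide. Pairs that bind mate more often; barcode pairs of the diploids are counted by sequencing. Each replicate has its own calibration line, from reference interactions of the BCL2 family. There are three technical replicates.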

The variants keep the light chain, the linker and the frameworks of Ab-91 (scFv order VL, a (GGGGS)3 linker, VH).
VL: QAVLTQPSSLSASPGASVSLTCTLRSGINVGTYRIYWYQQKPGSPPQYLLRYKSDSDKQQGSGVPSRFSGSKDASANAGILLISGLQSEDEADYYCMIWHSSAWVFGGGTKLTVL
VH: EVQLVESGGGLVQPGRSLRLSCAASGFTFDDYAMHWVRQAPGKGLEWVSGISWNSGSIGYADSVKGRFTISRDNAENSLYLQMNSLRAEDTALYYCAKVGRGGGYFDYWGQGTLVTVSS

Positions count from residue 1 of the parent VH; K65I puts I in place of K. This list gathers variants with a substitution at G100 (VH, numbered from residue 1). The Kd shown is the geometric mean over detected replicates; a lower Kd is a better binder. A pair that was not seen in any replicate is written "nd"; this usually means weak binding, but a binder can also be missed. Empty control strains, which show no peptide, gave a signal in 21% of pairings with library AAYL51; the median was 34 µM and 95% of these signals were weaker than 1.8 µM. No background was subtracted. Also given: how often the same scFv was detected with the empty control strains.

The variant K65I/G100A/Y105F showed 1.2 µM (2 of 3 replicates; controls 1 of 9). The variant F29T/K65W/G100I showed nd (0 of 3 replicates; controls 1 of 9). For S57F/V99M/G100M, the assay gave nd (0 of 3 replicates; controls 0 of 9). The variant F29L/N54Y/G100Q gave nd (0 of 3 replicates; controls 0 of 9). For I58E/V64W/G100W, the assay gave 57 µM (1 of 3 replicates; controls 2 of 9). The variant G100Y/F106H showed nd (0 of 3 replicates; controls 1 of 9). The variant H35N/G100E gave 1.8 µM (1 of 3 replicates; controls 2 of 9).

With S63I/G100L/Y105W the result was 34 µM (1 of 3 replicates; controls 0 of 9). For M34N/I51Y/G100S, the assay gave 2.5 mM (2 of 3 replicates; controls 7 of 9). For A33G/M34H/G100L, the assay gave 2.0 µM (1 of 3 replicates; controls 0 of 9). The variant D62S/S63H/G100C showed nd (0 of 3 replicates; controls 1 of 9). For G50L/A61R/G100P, the assay gave nd (0 of 3 replicates; controls 1 of 9). The variant W53C/G100D/G103W gave 59 µM (1 of 3 replicates; controls 2 of 9). The variant D62Q/V64D/G100S gave nd (0 of 3 replicates; controls 0 of 9).

For D31F/W53Y/G100R, the assay gave 60 µM (1 of 3 replicates; controls 1 of 9). The variant S57D/G100H gave nd (0 of 3 replicates; controls 1 of 9). With W53T/G100M/G103N the result was nd (0 of 3 replicates; controls 0 of 9). For G50D/G100F/Y105G, the assay gave nd (0 of 3 replicates; controls 3 of 9). The variant T28A/D62G/G100C gave 390 µM (2 of 3 replicates; controls 7 of 9). With G26I/G59L/G100V the result was 36 µM (2 of 3 replicates; controls 2 of 9). With G59M/G100K the result was 23 µM (1 of 3 replicates; controls 2 of 9).

The variant V64E/V99N/G100V gave 83 µM (2 of 3 replicates; controls 5 of 9). The variant G50Q/N54F/G100L showed nd (0 of 3 replicates; controls 0 of 9). For Y60W/A61Q/G100P, the assay gave 71 µM (1 of 3 replicates; controls 0 of 9). With I51E/N54M/G100K the result was nd (0 of 3 replicates; controls 0 of 9). The variant H35V/I58E/G100M showed nd (0 of 3 replicates; controls 0 of 9). With G100N the result was nd (0 of 3 replicates; controls 0 of 9). With S63Y/G100S the result was 13 µM (1 of 3 replicates; controls 1 of 9).

For G100D/Y105V/Y108V, the assay gave nd (0 of 3 replicates; controls 0 of 9). The variant F27A/I51A/G100I showed nd (0 of 3 replicates; controls 0 of 9). The variant I51T/G100R/D107H gave nd (0 of 3 replicates; controls 0 of 9). For V99A/G100Q/D107N, the assay gave 67 µM (1 of 3 replicates; controls 2 of 9). The variant G100V/G104S/D107H gave 120 nM (3 of 3 replicates; controls 2 of 9).

3 of these entries, quoted again:

| changes | Kd (apparent) | detected | control signals |
|---|---|---|---|
| G100D/Y105V/Y108V | nd | 0/3 | 0/9 |
| V64E/V99N/G100V | 83 µM | 2/3 | 5/9 |
| H35V/I58E/G100M | nd | 0/3 | 0/9 |

For reference, the parent read 72 nM as the reference entry and 7.5 nM as a member of this library.